PubChem BioAssay AID463210 (The Scripps Research Institute Molecular Screening Center, 2010)
The entries are a selection whose mix differs from that of the whole data set. Calls of active or inactive are those of the source.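 The calls were made as follows: active = percent activation above the screen-wide mean plus 3 SD (cut at about 25% in these data); inactive = the rest.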

The chains behind the UniProt entries cited, without tags or fusion partners. Where a name states a change or a piece, a line headed by the entry shows the natural chain unless it says otherwise.
UniProt P55210: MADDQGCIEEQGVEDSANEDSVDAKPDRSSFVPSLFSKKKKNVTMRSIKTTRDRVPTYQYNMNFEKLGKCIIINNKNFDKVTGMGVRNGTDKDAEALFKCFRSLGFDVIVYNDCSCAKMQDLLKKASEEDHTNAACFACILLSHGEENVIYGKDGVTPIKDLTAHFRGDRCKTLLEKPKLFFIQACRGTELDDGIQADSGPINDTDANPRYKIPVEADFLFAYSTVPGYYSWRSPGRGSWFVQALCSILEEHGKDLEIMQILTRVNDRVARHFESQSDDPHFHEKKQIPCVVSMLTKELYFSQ

These compounds were tested against Caspase-7 (Homo sapiens) (UniProt P55210) (assay: procaspase-7 activators, primary screen, counter-screen for procaspase-3 activator project, biochemical, absorbance, HTS, human (AID 463210)). Conditions: recombinant procaspase-7, Ac-DEVD-pNA absorbance 405 nm; at 8.5 µM; active compounds read high; D23A/D198A/D206A triple mutant, cannot self-cleave; scale: DMSO 0, 5 µM enzyme 100.
In the case of C[N+]1=C2C=CC=CC=C2SC12C([N+](=O)[O-])=CC([N+](=O)[O-])=C[C-]2[N+](=O)[O-] (stereo not drawn), the activation was inactive: -24%.
With Nc1ccc([As](=O)(O)c2ccc(N)cc2)cc1 the activation was inactive: 8.55%.
For CC1CCN(C(=O)Oc2c(Cl)cc(Cl)c3cccnc23)CC1, the activation was inactive: 11.6%.
CN(C)C(=O)OCCc1n(C)cc[n+]1C was tested, and the activation was inactive: 12.7%.
In the case of CC(C)=N/N=C(\N)N[N+](=O)[O-], the activation was inactive: 1.9%.
With O=C(Nc1cc([As](=O)(O)O)ccc1O)c1ccccc1 the activation was inactive: -5.13%.
For O=[N+]([O-])c1ncn(CCn2ncnc2[N+](=O)[O-])n1, the activation was inactive: 2.76%.
With CC(C)(C)C(=O)NC(Sc1ccncn1)C(Cl)(Cl)Cl (stereo not drawn) the activation was inactive: -46.6%.
For O=[N+]([O-])c1cccc(NC2=NCC(CBr)S2)c1 (stereo not drawn), the activation was inactive: -6.89%.
For CCOC(=O)Nc1ccc([As](=O)(O)O)c(O)c1, the activation was inactive: 1.66%.
Cc1cc(SC(NC(=O)c2ccccc2)C(Cl)(Cl)Cl)nc(C(C)C)n1 (stereo not drawn) was tested, and the activation was inactive: -33.9%.
With CCOC(=O)Nc1cccc([As](=O)(O)O)c1 the activation was inactive: -3.39%.
For O=P(Nc1ccccn1)(c1cccc2ccccc12)c1cccc2ccccc12, the activation was inactive: -6.28%.
Cc1cc(SC(NC=O)C(Cl)(Cl)Cl)ncn1 (stereo not drawn) was tested, and the activation was inactive: -27.3%.
In the case of COP1(=S)c2c(C)nn(CCC#N)c2N=C(c2ccc(F)cc2)N1C (stereo not drawn), the activation was inactive: -2.82%.
In the case of O=C(Nc1ccncc1[N+](=O)[O-])c1ccc([N+](=O)[O-])cc1[N+](=O)[O-], the activation was inactive: 0.02%.
With O=C(COc1ccccc1)OC1CN2CCC1CC2 (stereo not drawn) the activation was inactive: -2.9%.
O=C(OC1CN2CCC1CC2)c1cccc([N+](=O)[O-])c1 (stereo not drawn) was tested, and the activation was inactive: 6.24%.
CCOC(=O)c1ccc(NC(=O)C(C)(CCl)SC)cc1 (stereo not drawn) was tested, and the activation was inactive: 12.9%.
In the case of CCC(C)N(CC(C)C)C(=S)SC(NC(C)=O)C(Cl)(Cl)Cl (stereo not drawn), the activation was inactive: 6.78%.
For Cc1c2c(nc3ccccc13)SC(C(Cl)Cl)C2 (stereo not drawn), the activation was inactive: 5.97%.
Cc1cc(=O)[nH]c(N[N+](=O)[O-])n1 was tested, and the activation was inactive: -9.51%.
O=C(OC1CN2CCC1CC2)C12CC3CC(CC(C3)C1)C2 (stereo not drawn) was tested, and the activation was inactive: 4.56%.
For COc1cc(I)ccc1[As](=O)(O)O, the activation was inactive: -7.85%.
For COc1ccc2nc(NP(=O)(c3ccccc3)c3ccccc3)sc2c1, the activation was inactive: -0.71%.
For COc1ccc(N/C(=N/P(=O)(N2CCOCC2)N2CCOCC2)N2CCOCC2)cc1, the activation was inactive: 2.75%.
With COc1cc(C(=O)NCC2(N3CCOCC3)CCCCC2)ccc1OCC(C)C the activation was inactive: 0.77%.
C[As](=O)(O)c1cccc(C(=O)O)c1 was tested, and the activation was inactive: 0.73%.
O=[As](O)(c1ccc(O)cc1)c1ccccc1O was tested, and the activation was inactive: 8.11%.
For Cc1ccc(OP(=O)(Nc2ccc([N+](=O)[O-])cn2)Oc2ccc(C)cc2)cc1, the activation was inactive: 5.78%.
For Cc1ccc2nc3c(c(C)c2c1)CC(C(Cl)Cl)S3 (stereo not drawn), the activation was inactive: -12.8%.
In the case of ClCCSc1nnc(-c2cccnc2)o1, the activation was inactive: 0.09%.
In the case of CC(C)c1ccc(OP(=O)(Nc2ccccn2)Oc2ccccc2F)cc1 (stereo not drawn), the activation was inactive: 1.57%.
For O=[N+]([O-])c1cc([N+](=O)[O-])c(-c2ccn[nH]2)s1, the activation was inactive: -3.78%.
CCN(CC)C(=S)SC(NC=O)C(Cl)(Cl)Cl (stereo not drawn) was tested, and the activation was inactive: 0.89%.
With CC(C)NC(=O)NP(=O)(Oc1ccccc1)Oc1ccccc1 the activation was inactive: 1.13%.
With O=P(Nc1nccs1)(c1ccccc1)c1nc2ccccc2s1 (stereo not drawn) the activation was inactive: -20.9%.
With O=P(Nc1nccs1)(Oc1ccccc1)Oc1ccccc1 the activation was inactive: -3.34%.
For CCOP1(=S)c2c(C)nn(CCC#N)c2N=C(c2ccccc2F)N1C (stereo not drawn), the activation was inactive: 9.11%.
For CS(=O)(=O)c1cc([N+](=O)[O-])c2no[n+]([O-])c2c1, the activation was inactive: -7.14%.
With Nc1ccccc1[As](=O)(O)c1ccccc1 the activation was inactive: 0.28%.
With O=C(O)COc1ccc([As](=O)(O)O)cc1[N+](=O)[O-] the activation was inactive: -8.62%.
For NC(=O)Nc1ccc([As](=O)(O)O)cc1, the activation was inactive: 14.6%.
With CCOP1(=S)c2c(C)nn(CCC#N)c2N=C(c2ccc(F)cc2)N1C (stereo not drawn) the activation was inactive: -1.96%.
CN(C(=O)Cc1ccccc1)[C@@H]1CC[C@]2(CCCO2)C[C@H]1N1CCCC1 was tested, and the activation was inactive: -9.14%.
For N#CCCN(C(=O)COC(=O)C(O)(c1ccccc1)c1ccccc1)c1ccc(F)cc1, the activation was inactive: 10.5%.
CN(C(=O)Cc1ccc(Cl)c(Cl)c1)[C@H]1CC[C@@]2(CCCO2)C[C@@H]1N1CCCC1 was tested, and the activation was inactive: 0.03%.
CN(C)C(=O)c1cc([N+](=O)[O-])cc2c1-c1c(cc([N+](=O)[O-])cc1[N+](=O)[O-])C2=O was tested, and the activation was inactive: 7.23%.
In the case of O=[N+]([O-])c1ccc2c(c1)nnn2O, the activation was inactive: -1.96%.
With O=C(OC1CN2CCC1CC2)c1ccc(Cl)cc1 (stereo not drawn) the activation was inactive: 4.63%.
With CS(=O)(=O)c1ccc(Cl)c(NC(=O)COC(=O)C(O)(c2ccccc2)c2ccccc2)c1 the activation was inactive: 2.05%.
For COc1cc(C(=O)NCC2(N3CCOCC3)CCCCC2)cc(Cl)c1OC(C)C, the activation was inactive: 10.2%.
O=[As](O)(O)c1cccnc1 was tested, and the activation was inactive: -3.47%.
For O=[As](O)(c1cccc(O)c1)c1cccc(O)c1, the activation was inactive: 9.14%.
Cc1cccc(OCC(=O)OC2CN3CCC2CC3)c1 (stereo not drawn) was tested, and the activation was inactive: -8.3%.
With Nc1cccc2c([As](=O)(O)O)cccc12 the activation was inactive: -8.32%.
With Cc1ccc(NCCc2c([N+](=O)[O-])cc([N+](=O)[O-])cc2[N+](=O)[O-])cc1 the activation was inactive: -14%.
In the case of CCCOP(=S)(Nc1nc(N)cc(=O)[nH]1)OCCC, the activation was inactive: 1.55%.
CCOP(=O)(Nc1cccc2ccccc12)OCC was tested, and the activation was inactive: -1.59%.
COc1cc(C2NCCC3(OCCO3)C2(C)C)cc(OC)c1OC (stereo not drawn) was tested, and the activation was inactive: 11.4%.
CCOP(=O)(NC(=NC(C)c1ccccc1)NC(C)c1ccccc1)OCC (stereo not drawn) was tested, and the activation was inactive: 4.69%.
For O=P1(Nc2ccccn2)COc2ccccc2OC1, the activation was inactive: 8.88%.
For CCC1=CC2Cc3nc4ccc(Cl)cc4c(N)c3C(C1)C2 (stereo not drawn), the activation was inactive: 1.29%.
With CN(CCCl)Cc1cc(Cl)c(NC2=NCCN2)c(Cl)c1 the activation was inactive: 0.73%.
CCOP(=O)(Nc1ccc(C)cn1)OCC was tested, and the activation was inactive: 6.53%.
With CC(C)(C)C(=O)NC(Sc1ncccn1)C(Cl)(Cl)Cl (stereo not drawn) the activation was inactive: -33.8%.
Clc1n[nH]nc1-c1nn[nH][15n]1 was tested, and the activation was inactive: 4.97%.
For COc1ccccc1CNC(=O)COC(=O)C(O)(c1ccccc1)c1ccccc1, the activation was inactive: -2.8%.
In the case of CC(C)/C=N\N=C(\N)N[N+](=O)[O-], the activation was inactive: 7.94%.
With CN(C(=O)Cc1ccc(Cl)c(Cl)c1)[C@@H]1CCCC[C@H]1N1CCCC1 the activation was inactive: 3.32%.
With CC1(CBr)Cn2c(nc3ccccc3c2=O)S1 (stereo not drawn) the activation was inactive: -3.31%.
For O=[As](O)(c1ccccc1Br)c1ccccc1Br, the activation was inactive: -3.77%.
In the case of CC1CCC(C(C)C)C(OP(=O)(Nc2ccccn2)c2ccccc2)C1 (stereo not drawn), the activation was inactive: -2.28%.
With Cc1ccc(C(=O)OC2CN3CCC2CC3)cc1 (stereo not drawn) the activation was inactive: -1.59%.
For Cc1nn(-c2ccccc2)c2c1P(=O)(N1CCOCC1)N(C)C(c1ccccc1)=N2 (stereo not drawn), the activation was inactive: 4.34%.
CN(C)C1(CNC(=O)c2ccc(S(C)(=O)=O)cc2)CCCCC1 was tested, and the activation was inactive: 5.1%.
For O=C(/C=C/c1ccccc1)OC1CN2CCC1CC2 (stereo not drawn), the activation was inactive: 3.06%.
With O=P1(Nc2ncccn2)COc2ccccc2OC1 the activation was inactive: -7.66%.
With Nc1cccc([As](=O)(O)c2ccccc2)c1 the activation was inactive: 1.94%.
O=P1(Nc2ccc(Br)cn2)COc2ccccc2OC1 was tested, and the activation was inactive: -1.11%.
NS(=O)(=O)c1cccc(NC(=O)COC(=O)C(O)(c2ccccc2)c2ccccc2)c1 was tested, and the activation was inactive: 2.97%.
With O=[As](O)(c1cccs1)c1cccs1 the activation was inactive: -9.51%.
For Cc1ccc(OCC(=O)OC2CN3CCC2CC3)cc1 (stereo not drawn), the activation was inactive: -5.95%.
